This note sets out measurements from publication PMC5349910, “Discovery of BPR1K871, a quinazoline based, multi-kinase inhibitor for the treatment of AML and solid tumors: Rational design, synthesis, in vitro and in vivo evaluation” (Oncotarget, 2016).

The subject of this assay is HCC827 cells. Description: Anti-proliferative activity, HCC827. In kind it is cell-based. Conditions: Homo sapiens, HCC827, read-out: HCC827 EC50.

Each structure is given as a SMILES string.

In the case of `CNC(=O)c1cc(Oc2ccc(NC(=O)Nc3ccc(Cl)c(C(F)(F)F)c3)cc2)ccn1` [Sorafenib], the EC50 (commonly the midpoint of the concentration-response curve) is 6.27 µM.
